Here are results for 1 molecule from PubChem BioAssay AID2825 (Sanford-Burnham Center for Chemical Genomics, 2010).

A word on the inhibition: it is the drop in the measured response relative to a control, in per cent.

Molecules are shown by their SMILES. This is a selection; strong and weak results do not stand in their true shares. Active and inactive are the calls of the source.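 Rule for the calls: active = inhibition of 50% or more; inactive = inhibition below 50%.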

This test in a line: NALP3 inflammasome inhibitors in reconstituted yeast, primary screen, luminescence, uHTS (AID 2825).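 Note: plate controls were induced DMSO wells for no effect and uninduced yeast grown without galactose for full effect.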 Conditions: Yeast reconstituted NLRP3/ASC/caspase-1, beta-gal luminescence, 24 h; at 10 µM; active compounds read high.
On to `CC1=NCCc2c1[nH]c1ccccc21.O=[N+]([O-])c1cc([N+](=O)[O-])c(O)c([N+](=O)[O-])c1`, for which the inhibition is inactive: 10.2%.
